{
  "source": "patent US4757079A",
  "about": "“Anti-hypertensive piperidine compounds” (Dynamac Corporaton, priority 1986, dated 1988)",
  "system": "release of acetylcholine",
  "conditions": "after 17.5 mg/L; in the presence of DFP",
  "note": "Counter-ions that a name gives are not always drawn.",
  "data": [
    {"smiles": "CN1CCC(/C=C/c2cccc3ccccc23)CC1", "note": "[B-120, 1-methyl-4-(1-naphthylvinyl)piperidine hydrochloride]", "values": [
      {"measurement": "acetylcholine release after removal of the B-120", "value": "returned to normal after removal of the B-120 indicating that the block was reversible"}
    ]}
  ]
}
